SMILES strings stand for the structures. Where only a bound is given, the exact number is not on record here.

We go through 1 molecule from US10849898B2, “Treatment of relapsed and/or refractory solid tumors and non-Hodgkin's lymphomas” (CELGENE QUANTICEL RESEARCH, INC., priority 2016, dated 2020).

Assay in all cases: cells
The test system of one experiment is IMR-90. Conditions: Homo sapiens, IMR-90, read-out: Mean IC50.
The next experiment relates to NCI-H69. Conditions: Homo sapiens, NCI-H69, read-out: Mean IC50.
For a further experiment, the system named is NCI-H146. The conditions noted are these: Homo sapiens, NCI-H146, read-out: Mean IC50.
Another experiment concerns NCI-H841. The conditions noted are these: Homo sapiens, NCI-H841, read-out: Mean IC50.

Turning to `COc1ccc(-c2c(-c3ccc(C#N)c(F)c3)nc(N3CCC(N)CC3)n(C)c2=O)cc1F` [Compound A, 4-[2-(4-amino-piperidin-1-yl)-5-(3-fluoro-4-methoxy-phenyl)-1-methyl-6-oxo-1,6-dihydro-pyrimidin-4-yl]-2-fluoro-benzonitrile], the IC50 was > 10 mM in the experiment with IMR-90, 7 µM with NCI-H69, 9.9 µM in the experiment on NCI-H146 and > 500 µM in the experiment with NCI-H841.

What is called IC50 is the concentration at which inhibition is half-maximal.
